Chains of the proteins cited; added tags and fusions are not shown.
UniProt Q86WV6, whole entry R71H/G230A/H232R/R293Q: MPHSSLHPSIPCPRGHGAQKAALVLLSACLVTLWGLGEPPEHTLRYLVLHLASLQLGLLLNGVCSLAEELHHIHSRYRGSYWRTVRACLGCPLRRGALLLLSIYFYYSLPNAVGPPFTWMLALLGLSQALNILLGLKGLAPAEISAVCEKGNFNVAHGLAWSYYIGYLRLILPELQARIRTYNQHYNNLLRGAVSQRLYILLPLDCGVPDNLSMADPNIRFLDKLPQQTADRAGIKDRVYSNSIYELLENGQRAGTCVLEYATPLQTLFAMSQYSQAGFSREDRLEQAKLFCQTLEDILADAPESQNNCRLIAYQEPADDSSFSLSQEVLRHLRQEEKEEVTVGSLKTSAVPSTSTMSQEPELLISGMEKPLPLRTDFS

In US20230250060A1 (IFM Due, Inc., priority 2022, published 2023):

Biological target: STING (Homo sapiens, UniProt Q86WV6, G230A/H232R/R293Q/R71H)
Test: STING reporter assay (luciferase) in THP1-Dual KO-IFNAR2 cells stimulated with 2′3′cGAMP
Conditions: read-out: Pharmaron, THP1_IFNAR2 STING 24 h Luci Normalized: GeoMean EC50, 2′3′cGAMP 15 μM final, luciferase reporter activity
Procedure: STING pathway activation by the compounds described herein was measured using TTIP1-Dual™ cells (KO-IFNAR2).
TTIP1-Dual™ KO-IFNAR2 Cells (obtained from invivogen) were maintained in RPMI, 10% FCS, 5 ml P/S, 2 mM L-glut, 10 mM Hepes, and 1 mM sodium pyruvate. Compounds were spotted in empty 384 well tissue culture plates (Greiner 781182) by Echo for a final concentration of 0.0017-100 μM. Cells were plated into the TC plates at 40 μL per well, 2×10E6 cells/mL. For activation with STING ligand, 2′3′cGAMP (MW 718.38, obtained from Invivogen), was prepared in Optimem media.
The following solutions were prepared for each 1×384 plate: • Solution A: 2 mL Optimem with one of the following stimuli: • […] • Solution B: 2 mL Optimem with […] Lipofectamine 2000→Incubate 5 min at RT
2 mL of solution A and 2 ml Solution B was mixed and incubated for 20 min at room temperature (RT). […] Luciferase reporter activity was then measured. EC50 values were calculated by using standard methods known in the art.
Luciferase reporter assay: 10 μL of supernatant from the assay was transferred to white 384-plate with flat bottom and squared wells. […] Luminescence was measured on a Platereader (e.g., Spectramax I3X (Molecular Devices GF3637001)).
Luciferase reporter activity was then measured. EC50 values were calculated by using standard methods known in the art.

How did the pEC50 turn out when O=C(Nc1c[nH]c2ccc(OCCc3ccc(C(F)(F)F)cc3)cc12)C1CC2(CC2)C1 was run?
Its pEC50 is 6.00 to 6.70.

pEC50: −log10 of the molar value.
